Sequences of proteins named here, by UniProt entry; tags and fusion partners are left off. A change or cut given only in a name is not applied to a line headed by its entry.
UniProt P32745: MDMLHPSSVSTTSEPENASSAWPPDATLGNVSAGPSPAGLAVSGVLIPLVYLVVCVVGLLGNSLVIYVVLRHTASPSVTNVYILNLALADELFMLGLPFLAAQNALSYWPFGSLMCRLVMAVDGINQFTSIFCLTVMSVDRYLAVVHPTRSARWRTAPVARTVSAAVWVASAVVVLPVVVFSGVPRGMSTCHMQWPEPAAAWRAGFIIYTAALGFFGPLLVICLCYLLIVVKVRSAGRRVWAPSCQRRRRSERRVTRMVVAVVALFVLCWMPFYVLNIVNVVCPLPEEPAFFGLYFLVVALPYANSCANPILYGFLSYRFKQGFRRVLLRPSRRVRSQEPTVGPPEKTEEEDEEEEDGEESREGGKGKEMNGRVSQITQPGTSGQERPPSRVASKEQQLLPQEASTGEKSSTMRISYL
UniProt P35346: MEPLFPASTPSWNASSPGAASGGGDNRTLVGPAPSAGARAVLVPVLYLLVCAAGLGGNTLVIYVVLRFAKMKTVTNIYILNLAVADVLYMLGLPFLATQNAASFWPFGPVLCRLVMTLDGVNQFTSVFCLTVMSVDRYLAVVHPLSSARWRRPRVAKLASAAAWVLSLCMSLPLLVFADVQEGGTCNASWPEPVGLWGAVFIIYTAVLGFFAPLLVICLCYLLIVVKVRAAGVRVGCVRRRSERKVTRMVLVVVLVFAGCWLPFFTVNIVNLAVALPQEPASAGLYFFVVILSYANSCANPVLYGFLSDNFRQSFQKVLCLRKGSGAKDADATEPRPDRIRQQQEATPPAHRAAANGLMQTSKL

In ChEMBL document CHEMBL1143592, “N-terminal sugar conjugation and C-terminal Thr-for-Thr(ol) exchange in radioiodinated Tyr3-octreotide: effect on cellular ligand trafficking in vitro and tumor accumulation in vivo” (J Med Chem, 2005):

Assays:
[1] = biological target: Somatostatin receptor type 3 (Homo sapiens, UniProt P32745); assay: In vitro inhibition of [125I][Leu8,D-Trp22,Tyr25] somatostatin 28 binding to human somatostatin receptor type 3 expressed in CCL39 cells; (n=3); assay type: cell-based
How it was run: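 Receptor autoradiography on sections of cell membrane pellets from CHO-K1 (sst1, sst5) or CCL39 (sst2–4) cells stably expressing the human subtype. Full displacement of [125I][Leu8,D-Trp22,Tyr25]somatostatin 28 by unlabeled peptide, 0.1–1000 nM, with somatostatin 28 run in parallel as control. IC50 derived by computer-assisted image analysis, quantified against cross-calibrated [125I] tissue standards.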

[2] = biological target: Somatostatin receptor type 5 (Homo sapiens, UniProt P35346); assay: In vitro inhibition of [125I][Leu8,D-Trp22,Tyr25] somatostatin 28 binding to human somatostatin receptor type 5 expressed in CHO-K1 cells; (n=3); assay type: cell-based

- pIC50 [1]: 6.41
- pIC50 [2]: 6.94
Sequence: EDOTREOTIDE YTTRIUM

pIC50: −log10 of the molar value.
